Amino acid sequences for entries named in this document (tags omitted).
UniProt Q15858, whole entry: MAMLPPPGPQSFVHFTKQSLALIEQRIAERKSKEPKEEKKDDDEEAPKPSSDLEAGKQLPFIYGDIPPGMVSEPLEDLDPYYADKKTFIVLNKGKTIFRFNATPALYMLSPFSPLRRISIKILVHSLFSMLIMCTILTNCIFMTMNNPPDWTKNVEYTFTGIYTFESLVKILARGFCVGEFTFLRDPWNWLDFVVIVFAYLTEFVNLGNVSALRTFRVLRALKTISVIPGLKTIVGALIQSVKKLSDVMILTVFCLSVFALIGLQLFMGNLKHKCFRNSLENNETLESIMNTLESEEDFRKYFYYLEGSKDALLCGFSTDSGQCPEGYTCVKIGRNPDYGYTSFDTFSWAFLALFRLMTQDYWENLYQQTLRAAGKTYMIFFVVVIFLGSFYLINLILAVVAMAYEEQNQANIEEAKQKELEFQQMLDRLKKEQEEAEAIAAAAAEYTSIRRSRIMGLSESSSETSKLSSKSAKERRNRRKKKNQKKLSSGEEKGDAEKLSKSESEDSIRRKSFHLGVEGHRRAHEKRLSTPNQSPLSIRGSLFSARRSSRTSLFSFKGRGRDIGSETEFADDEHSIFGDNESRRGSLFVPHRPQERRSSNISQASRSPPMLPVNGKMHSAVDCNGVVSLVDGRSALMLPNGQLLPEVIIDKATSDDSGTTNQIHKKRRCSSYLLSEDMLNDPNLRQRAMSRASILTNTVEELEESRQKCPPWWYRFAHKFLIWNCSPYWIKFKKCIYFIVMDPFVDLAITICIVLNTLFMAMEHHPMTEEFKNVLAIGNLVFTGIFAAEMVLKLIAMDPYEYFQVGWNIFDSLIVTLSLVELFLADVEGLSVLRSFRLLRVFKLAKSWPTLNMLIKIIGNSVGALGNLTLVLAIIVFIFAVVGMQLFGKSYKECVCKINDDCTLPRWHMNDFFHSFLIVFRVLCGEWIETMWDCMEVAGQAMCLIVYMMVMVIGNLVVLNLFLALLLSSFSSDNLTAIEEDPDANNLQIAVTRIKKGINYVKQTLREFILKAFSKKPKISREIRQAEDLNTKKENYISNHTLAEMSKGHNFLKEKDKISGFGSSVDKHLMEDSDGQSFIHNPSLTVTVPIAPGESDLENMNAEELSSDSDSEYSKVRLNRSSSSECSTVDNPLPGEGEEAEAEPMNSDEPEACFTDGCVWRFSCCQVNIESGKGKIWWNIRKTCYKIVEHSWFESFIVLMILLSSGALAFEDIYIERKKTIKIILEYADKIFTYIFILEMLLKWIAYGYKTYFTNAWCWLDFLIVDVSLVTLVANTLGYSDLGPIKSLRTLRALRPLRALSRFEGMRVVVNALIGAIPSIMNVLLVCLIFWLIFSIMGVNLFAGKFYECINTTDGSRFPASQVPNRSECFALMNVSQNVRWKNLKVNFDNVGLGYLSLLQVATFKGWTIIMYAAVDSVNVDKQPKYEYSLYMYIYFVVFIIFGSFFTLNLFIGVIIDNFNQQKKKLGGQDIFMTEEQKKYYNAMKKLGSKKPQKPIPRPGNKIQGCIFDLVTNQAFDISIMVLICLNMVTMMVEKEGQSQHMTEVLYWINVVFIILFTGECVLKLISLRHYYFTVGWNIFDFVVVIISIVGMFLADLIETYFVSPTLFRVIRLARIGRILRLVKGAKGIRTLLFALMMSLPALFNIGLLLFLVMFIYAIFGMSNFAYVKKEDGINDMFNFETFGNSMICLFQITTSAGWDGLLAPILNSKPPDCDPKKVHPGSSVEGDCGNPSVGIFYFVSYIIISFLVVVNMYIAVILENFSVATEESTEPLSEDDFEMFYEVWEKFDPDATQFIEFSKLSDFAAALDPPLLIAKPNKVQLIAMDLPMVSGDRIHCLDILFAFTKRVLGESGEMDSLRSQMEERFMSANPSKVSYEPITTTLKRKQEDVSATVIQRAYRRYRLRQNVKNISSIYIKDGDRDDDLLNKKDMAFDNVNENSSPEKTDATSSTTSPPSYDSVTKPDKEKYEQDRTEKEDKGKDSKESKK

In patent US10668067B2, “Pyridine sulfonamides” (AMGEN INC., priority 2016, dated 2020):

Target: human Nav1.7 (Homo sapiens (Human), UniProt Q15858)
Assay: Nav 1.7 In Vitro PX Assay (PatchXpress whole cell voltage clamp)
Assay type: cell-based
Conditions: in-vitro Nav 1.7 PX data

- IC50: 14 nM
Compound: CNC(=O)N(c1ccc(S(=O)(=O)Nc2ncccn2)cn1)c1cc(F)c(-c2ccc(F)c(OC(F)(F)F)c2)cc1OC [Example 1-87, 6-((2,4′-difluoro-5-methoxy-3′-(trifluoromethoxy)-4-biphenylyl)(methylcarbamoyl)amino)-N-2-pyrimidinyl-3-pyridinesulfonamide]
